{
  "sequences": {"note": "The chains behind the UniProt entries cited, without tags or fusion partners.", "UniProt P41235, whole entry": "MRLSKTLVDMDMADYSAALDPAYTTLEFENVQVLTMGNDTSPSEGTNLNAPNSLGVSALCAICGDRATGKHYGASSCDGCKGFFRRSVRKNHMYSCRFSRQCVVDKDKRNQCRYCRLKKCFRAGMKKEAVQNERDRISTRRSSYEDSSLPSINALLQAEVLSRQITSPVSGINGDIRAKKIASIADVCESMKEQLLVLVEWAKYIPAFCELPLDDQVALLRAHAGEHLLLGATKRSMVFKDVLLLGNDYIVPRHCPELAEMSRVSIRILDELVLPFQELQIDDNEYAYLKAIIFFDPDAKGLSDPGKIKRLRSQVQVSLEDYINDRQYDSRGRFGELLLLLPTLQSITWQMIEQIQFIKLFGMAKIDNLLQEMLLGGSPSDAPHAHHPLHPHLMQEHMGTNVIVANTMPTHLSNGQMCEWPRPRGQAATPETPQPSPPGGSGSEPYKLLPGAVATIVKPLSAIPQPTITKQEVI"},
  "source": "PubChem BioAssay AID1224865",
  "about": "(Sanford-Burnham Center for Chemical Genomics, 2016)",
  "note": "Only a part is listed here, and it is no random draw. Active and inactive are the calls of the source. Cut-off read from the data, not from the text of the source: active = activity change above about 30% (passing the limit was not always enough); inactive = the rest.",
  "data": [
    {"molecular_target": "Hepatocyte nuclear factor 4-alpha (Homo sapiens) (UniProt P41235)", "test": "change in binding of human HNF4A to DNA, primary screen, biochemical, fluorescence polarization, FITC-DNA (AID 1224865)", "conditions": "1 h, at 10 µM, stronger effect = higher value", "values": [
      {"molecule": "CC(C)=N/N=C(\\N)N[N+](=O)[O-]", "activity change": "inactive: 2.59%"},
      {"molecule": "CC(C)c1nc(Nc2ccccc2)n(P(=O)(N(C)C)N(C)C)n1", "activity change": "inactive: 2.09%"},
      {"molecule": "c1cc(-c2nn[nH]n2)ccc1-c1nn[nH]n1", "activity change": "inactive: -1.91%"},
      {"molecule": "CC1CCN(C(=O)Oc2c(Cl)cc(Cl)c3cccnc23)CC1", "activity change": "inactive: 6.76%"},
      {"molecule": "C[N+]1=C2C=CC=CC=C2SC12C([N+](=O)[O-])=CC([N+](=O)[O-])=C[C-]2[N+](=O)[O-]", "note": "(centres undefined)", "activity change": "inactive: -39.5%"},
      {"molecule": "CC(C)(C)c1ccc(OP(C)(=O)O)cc1", "activity change": "inactive: 0.8%"},
      {"molecule": "Nc1ccc([As](=O)(O)c2ccc(N)cc2)cc1", "activity change": "inactive: 3.36%"},
      {"molecule": "COc1ccccc1OP(C)(=O)Nc1ccccc1Br", "note": "(centres undefined)", "activity change": "inactive: 1.62%"},
      {"molecule": "CP(=O)(Nc1ccc(Cl)cc1)Oc1ccc(F)cc1", "note": "(centres undefined)", "activity change": "inactive: -2.95%"},
      {"molecule": "CCN(/C(=N/P(=O)(N1CCOCC1)N1CCOCC1)N1CCOCC1)c1ccc(OC)cc1", "activity change": "inactive: -3.42%"},
      {"molecule": "O=C(OCCCN1CCCC1)C(O)(c1ccccc1)C1CCCCC1", "note": "(centres undefined)", "activity change": "inactive: 3.1%"},
      {"molecule": "COc1ccccc1OP(C)(=O)Nc1c(C)n(C)n(-c2ccccc2)c1=O", "note": "(centres undefined)", "activity change": "inactive: 1.26%"},
      {"molecule": "O=[N+]([O-])c1cccc2n[nH]nc12", "activity change": "inactive: -1.24%"},
      {"molecule": "CC(=O)N1C2C3N(C(C)=O)C1C1N(C(C)=O)C(C(N1C(C)=O)N3C(C)=O)N2C(C)=O", "activity change": "inactive: 1.05%"},
      {"molecule": "CCc1nc2c(n1)c1c(non1O)c1c2no[n+]1[O-]", "activity change": "inactive: -3.57%"},
      {"molecule": "O=[N+]([O-])c1cc([N+](=O)[O-])c(CCNc2ccccc2)c([N+](=O)[O-])c1", "activity change": "inactive: 1.32%"},
      {"molecule": "CCc1ccc(OP(C)(=O)Nc2cccnc2)cc1", "note": "(centres undefined)", "activity change": "inactive: -3.64%"},
      {"molecule": "Cc1ccc(NP(=O)(Oc2ccccc2)Oc2ccccc2)nc1", "activity change": "inactive: 5.77%"},
      {"molecule": "CP(=O)(Oc1ccccc1)N1CCOC1=O", "note": "(centres undefined)", "activity change": "inactive: 0.06%"},
      {"molecule": "COc1ccc(C2=NCC(CBr)S2)cc1", "note": "(centres undefined)", "activity change": "inactive: 2.14%"},
      {"molecule": "COc1ccc(OP(C)(=O)Nc2ccc(Br)cc2)cc1", "note": "(centres undefined)", "activity change": "inactive: -2.66%"},
      {"molecule": "CCN(CC)CC(O)COC(=O)C(O)(c1ccccc1)C1CCCCC1", "note": "(centres undefined)", "activity change": "inactive: -3.84%"},
      {"molecule": "O=[N+]([O-])c1cccc(NC2=NCC(CBr)S2)c1", "note": "(centres undefined)", "activity change": "inactive: -0.71%"},
      {"molecule": "COC(=O)C1(C)COP(=O)(Nc2ccccc2)OC1", "note": "(centres undefined)", "activity change": "inactive: -0.76%"},
      {"molecule": "O=C(O)CNc1ccc([As](=O)(O)O)cc1", "activity change": "inactive: 0.62%"},
      {"molecule": "CC(C)(C)C(=O)NC(Sc1ccncn1)C(Cl)(Cl)Cl", "note": "(centres undefined)", "activity change": "inactive: -0.8%"},
      {"molecule": "O=[N+]([O-])c1ncn(CCn2ncnc2[N+](=O)[O-])n1", "activity change": "inactive: -0.75%"},
      {"molecule": "O=C(Nc1cc([As](=O)(O)O)ccc1O)c1ccccc1", "activity change": "inactive: 1.12%"},
      {"molecule": "CCOC(=O)c1ccc(NP(C)(=O)Oc2ccc(Cl)cc2)cc1", "note": "(centres undefined)", "activity change": "inactive: -0.66%"},
      {"molecule": "CP(=O)(OC12CC3CC(CC(C3)C1)C2)OC12CC3CC(CC(C3)C1)C2", "activity change": "inactive: -3.49%"},
      {"molecule": "O=P1(N(CCCl)CCCl)OCCCS1", "note": "(centres undefined)", "activity change": "inactive: 0.83%"},
      {"molecule": "CCN(N=Nc1nonc1N)c1nonc1N", "activity change": "inactive: -2.56%"},
      {"molecule": "CP(=O)(OCCOc1ccccc1)OCCOc1ccccc1", "activity change": "inactive: -2.17%"},
      {"molecule": "CP(=O)(Nc1ccc(Cl)cc1Cl)Oc1ccccc1", "note": "(centres undefined)", "activity change": "inactive: 1.68%"},
      {"molecule": "CCCCCCCCCCCCCCCC1C[N+](C)(C)CCOP(C)(=O)O1", "note": "(centres undefined)", "activity change": "inactive: 7.66%"},
      {"molecule": "Nc1cccc2ccc([As](=O)(O)O)cc12", "activity change": "inactive: -5.6%"},
      {"molecule": "Cc1ccc(NP(=O)(Oc2ccccc2F)Oc2ccccc2F)nc1", "activity change": "inactive: 4.59%"},
      {"molecule": "CN(C(=O)Cc1ccc(Cl)c(Cl)c1)[C@H]1CCCC[C@@H]1N1CCCC1", "activity change": "inactive: -1.02%"},
      {"molecule": "COc1ccccc1OP(C)(=O)Nc1ccc(C)c(C)c1", "note": "(centres undefined)", "activity change": "inactive: 1.15%"},
      {"molecule": "CCOP(=O)(Nc1ccccc1)OCC", "activity change": "inactive: 1.33%"},
      {"molecule": "Cc1cc(SC(NC(=O)c2ccc(F)cc2)C(Cl)(Cl)Cl)ncn1", "note": "(centres undefined)", "activity change": "inactive: 4.49%"},
      {"molecule": "COc1ccc(OP(C)(=O)Nc2ccccc2Br)cc1", "note": "(centres undefined)", "activity change": "inactive: 0.53%"},
      {"molecule": "CCCC1OP(N)(=O)OCC1CC", "note": "(centres undefined)", "activity change": "inactive: -3.16%"},
      {"molecule": "O=C(O)c1ccccc1[As](=O)(O)O", "activity change": "inactive: -8%"},
      {"molecule": "CC(=O)Nc1ccc([As](=O)(O)O)cc1", "activity change": "inactive: 2.72%"},
      {"molecule": "Cc1cc(C)cc(OP(C)(=O)Nc2cccc(C(F)(F)F)c2)c1", "note": "(centres undefined)", "activity change": "inactive: 0.22%"},
      {"molecule": "CN(C)P(=O)(N(C)C)n1c(Nc2ccccc2)nnc1-c1ccccc1", "activity change": "inactive: -4.03%"},
      {"molecule": "O=P(Nc1nc2ccc(Cl)cc2s1)(c1ccccc1)c1ccccc1", "activity change": "inactive: 2.11%"},
      {"molecule": "O=C1C(O)=C([N+](=O)[O-])C(=O)C(O)=C1[N+](=O)[O-]", "activity change": "inactive: -37.9%"},
      {"molecule": "COc1ccccc1OP(C)(=O)Nc1ccc(C)cc1C", "note": "(centres undefined)", "activity change": "inactive: -0.19%"},
      {"molecule": "CP(=O)(Nc1ccccn1)Oc1ccccc1", "note": "(centres undefined)", "activity change": "inactive: 1.49%"},
      {"molecule": "CCc1ccc(OP(C)(=O)O)cc1", "activity change": "inactive: -3.54%"},
      {"molecule": "O=[N+]([O-])C1C(O)C(O)C([N+](=O)[O-])C(O)C1O", "note": "(centres undefined)", "activity change": "inactive: 0.45%"},
      {"molecule": "CC(C)CC(=O)NC(Sc1ccc(Cl)cc1)C(Cl)(Cl)Cl", "note": "(centres undefined)", "activity change": "inactive: -1.79%"},
      {"molecule": "O=[N+]([O-])c1cc([N+](=O)[O-])c(Nc2ccccn2)c([N+](=O)[O-])c1", "activity change": "inactive: -3.73%"},
      {"molecule": "Cc1c(NP(C)(=O)Oc2ccc(C(C)C)cc2)c(=O)n(-c2ccccc2)n1C", "note": "(centres undefined)", "activity change": "inactive: 2.52%"},
      {"molecule": "Nc1cc(N)c2nonc2c1[N+](=O)[O-]", "activity change": "inactive: -0.09%"},
      {"molecule": "O=C(NC(Sc1ccncn1)C(Cl)(Cl)Cl)c1ccccc1", "note": "(centres undefined)", "activity change": "inactive: 1.46%"},
      {"molecule": "Oc1ccccc1CNc1ccccn1", "activity change": "inactive: -3.09%"},
      {"molecule": "Cc1ccc(OP(=O)(Nc2nccs2)Oc2ccc(C)cc2)cc1", "activity change": "inactive: 3.57%"},
      {"molecule": "COc1ccc(OP(C)(=O)Nc2ccccn2)cc1", "note": "(centres undefined)", "activity change": "inactive: -2.32%"},
      {"molecule": "COc1ccccc1OP(=O)(Nc1ccc(C)cn1)Oc1ccccc1OC", "activity change": "inactive: -3.31%"},
      {"molecule": "Clc1ccc(Cl)c(NC2=NCC(CBr)S2)c1", "note": "(centres undefined)", "activity change": "inactive: -2.5%"},
      {"molecule": "CN(C)CCOC(=O)C(O)(c1ccccc1)C1CCCC1", "note": "(centres undefined)", "activity change": "inactive: 0.69%"},
      {"molecule": "CN1CCCC(OC(=O)C(c2ccccc2)c2ccccc2)C1", "note": "(centres undefined)", "activity change": "inactive: -0.49%"},
      {"molecule": "NC(=O)c1cc([N+](=O)[O-])cc([N+](=O)[O-])c1N", "activity change": "inactive: 1.23%"},
      {"molecule": "Cc1ccc(N/C(=N/P(=O)(N2CCOCC2)N2CCOCC2)N2CCOCC2)cc1", "activity change": "inactive: 0.89%"},
      {"molecule": "COc1ccccc1OP(C)(=O)Nc1ccc(Br)cc1", "note": "(centres undefined)", "activity change": "inactive: 3.58%"},
      {"molecule": "CN(C(=O)Cc1ccc(Cl)c(Cl)c1)[C@H]1CCCC[C@H]1N1CCCC1", "activity change": "inactive: -2.69%"}
    ]}
  ]
}
